{"source": "patent US9603922B2", "about": "“Modulation of NKT cell activity with antigen-loaded CD1d molecules” (VACCINEX, INC., priority 2007, dated 2017)", "tested_on": "B16-HER2 cells", "assay": "Precoating experiment, lung metastases of B16-HER2 cells", "format": "in vivo, mouse", "conditions": "cells pre-incubated with agent, injected i.v. into naïve mice", "method": "FIG. 5: Precoating experiment. B16-HER2 (a) and B16 wild type (B16 wt) cells (b) were precoated for 1 hour with 0.4 μg/ml αGalCer, 40 μg/ml αGalCer/CD1d-Her2 Fusion protein (Fusion), 10 μg/ml HERCEPTIN®, or 20 μg/ml αGalCer/sCD1d (sCD1d) and, with or without a previous wash, cells were injected i.v. Lung metastases were analyzed 3 weeks after graft with the ImageJ k-means clustering program and results are expressed as percentage of black metastatic surface over total lung surface. *P<0.005 compared to PBS control.\nQuantification of lung metastasis. Metastatic nodule surface area was measured on 2560×1920 pixels photographs of the whole organs, taken on an Zeiss STEMI SV11 dissection microscope (Carl Zeiss, Jena, Germany) equipped with a PROGRES-C10plus Color Camera (Jenoptik, Jena, Germany). Each image was analyzed with the ImageJ program (rsb.info.nih.gov/ij/) using a k-means clustering algorithm (plugin available on ij-plugins.sourceforge.net). Images were segmented into 9 segments cluster tolerance 1×10−4, randomization seed: 48) and the appropriate segments were selected based on the color of the metastasis reaching the surface of the organ. The area of the sum of selected color segments was expressed as percentage of the area occupied by the lungs. Both sides of the lung were analyzed. This method takes into account both the number and the size of the tumor nodules. […]", "data": [{"substance": "HERCEPTIN: humanized anti-HER2 monoclonal antibody (Hoffmann-La-Roche)", "values": [{"measurement": "Lung metastases of precoated B16-HER2 cells", "result": "unable to inhibit lung metastases"}]}]}
